T1: LIN28A (human?, UniProt Q9H9Z2 1-209)
T1 sequence: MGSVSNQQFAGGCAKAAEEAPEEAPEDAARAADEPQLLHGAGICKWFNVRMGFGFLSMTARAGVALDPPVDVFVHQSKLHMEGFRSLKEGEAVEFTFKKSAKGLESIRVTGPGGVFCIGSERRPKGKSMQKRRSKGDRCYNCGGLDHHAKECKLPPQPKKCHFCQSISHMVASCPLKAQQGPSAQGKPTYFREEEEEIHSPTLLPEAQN

T2: CIRBP (Homo sapiens, UniProt Q14011 1-172)
T2 sequence: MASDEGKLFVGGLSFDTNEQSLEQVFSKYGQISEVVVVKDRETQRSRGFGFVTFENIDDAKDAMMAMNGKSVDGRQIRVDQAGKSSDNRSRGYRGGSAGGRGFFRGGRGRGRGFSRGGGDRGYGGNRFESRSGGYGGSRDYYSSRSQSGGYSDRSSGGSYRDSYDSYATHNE

T3: DHX36 (Homo sapiens, UniProt Q9H2U1 1-1008)
T3 sequence: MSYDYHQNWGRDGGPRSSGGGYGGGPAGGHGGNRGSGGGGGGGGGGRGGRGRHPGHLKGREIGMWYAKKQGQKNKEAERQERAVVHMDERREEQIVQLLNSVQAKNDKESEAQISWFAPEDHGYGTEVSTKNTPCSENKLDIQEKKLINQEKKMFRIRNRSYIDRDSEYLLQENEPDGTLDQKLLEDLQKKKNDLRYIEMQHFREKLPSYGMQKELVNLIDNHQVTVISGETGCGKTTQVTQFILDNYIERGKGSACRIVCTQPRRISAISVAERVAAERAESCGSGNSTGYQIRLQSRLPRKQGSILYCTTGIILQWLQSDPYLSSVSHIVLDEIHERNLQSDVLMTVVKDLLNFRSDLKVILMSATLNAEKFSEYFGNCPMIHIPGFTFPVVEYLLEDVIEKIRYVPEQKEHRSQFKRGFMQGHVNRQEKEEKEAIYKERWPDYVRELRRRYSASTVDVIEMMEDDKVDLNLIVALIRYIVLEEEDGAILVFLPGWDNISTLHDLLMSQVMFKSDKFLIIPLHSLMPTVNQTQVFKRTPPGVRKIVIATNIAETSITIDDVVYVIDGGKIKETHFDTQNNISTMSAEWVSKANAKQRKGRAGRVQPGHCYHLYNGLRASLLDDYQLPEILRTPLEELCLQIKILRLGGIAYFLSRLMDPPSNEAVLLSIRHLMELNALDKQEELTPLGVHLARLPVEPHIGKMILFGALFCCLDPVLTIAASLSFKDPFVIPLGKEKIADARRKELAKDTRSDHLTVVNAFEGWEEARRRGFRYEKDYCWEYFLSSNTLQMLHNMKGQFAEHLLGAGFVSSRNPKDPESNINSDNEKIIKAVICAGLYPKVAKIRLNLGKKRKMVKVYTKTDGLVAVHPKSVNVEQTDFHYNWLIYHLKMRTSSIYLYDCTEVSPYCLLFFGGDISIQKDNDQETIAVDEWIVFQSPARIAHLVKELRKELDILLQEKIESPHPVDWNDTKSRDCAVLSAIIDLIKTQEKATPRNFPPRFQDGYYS

B1: hsa-mir-3606 (structured_RNA)
RNA: GGGAAAGCUUACGCGGAGUGAGCAUAUUGGUGUACGAAGUUUCAGCUUUUAAUUUUUUUAAAAGCUGAAGCUUCGUGCAC
B2: hsa-mir-188 (structured_RNA)
RNA: GGGAAUGGAAGAGCCCUCACCACAAAGCGGUGUACGAAGUUUCAGCGGAGGGUGAGCUUUCUGAAAACCCCUCCGCUGAAGCUUCGUGCAC
B3: hsa-mir-4465 (structured_RNA)
RNA: GGGAGUGAGCUCCGCGUAUCUGGAGUUGGGUGUACGAAGUUUCAGCUGAGGUUUACUAUGGAACCUCAGCUGAAGCUUCGUGCAC
B4: hsa-mir-8078 (structured_RNA)
RNA: GGGAAAGACCGGCACGGAACUGGUAAAUGGUGUACGAAGUUUCAGCGGCCUGGGAUUCCUGCCUUCUAGGUCGCUGAAGCUUCGUGCAC
B5: hsa-mir-375 (structured_RNA)
RNA: GGGAAGAUUCCGUGUUCAUGCCCGCAACGGUGUACGAAGUUUCAGCCAAACCGGACCUGAGCGUUUUGGCUGAAGCUUCGUGCAC
B6: hsa-mir-206 (structured_RNA)
RNA: GGGACCACCUUGAUUGGUUAACUGCACGGGUGUACGAAGUUUCAGCCCCAUAUGGAUUACUUUGCUAUGGAGCUGAAGCUUCGUGCAC
B7: hsa-mir-1256 (structured_RNA)
RNA: GGGAACGAACCGCGAUUGCUGCAAACUAGGUGUACGAAGUUUCAGCAGCUGUGAAAGUCCUAGCUGCUGAAGCUUCGUGCAC
B8: hsa-mir-5689 (structured_RNA)
RNA: GGGAACUGGAGUCCCUGGAACUCACUCGGGUGUACGAAGUUUCAGCUAGAUACUCAGGAGGGUGAGUAUCUAGCUGAAGCUUCGUGCAC
B9: hsa-mir-135b (structured_RNA)
RNA: GGGAAACUGGCGGUAACUAUAGUCACUAGGUGUACGAAGUUUCAGCAUGUGAUUGCUGUCCCAAACUCAUGUGCUGAAGCUUCGUGCAC
B10: NEAT1_ParasoR_ID13 (structured_RNA)
RNA: GGGACAAAUAGGGUGUGAUUGCCGCAAAGGUGUACGAAGUUUCAGCGUAACUCCUAUGGUUACGCUGAAGCUUCGUGCAC
B11: hsa-mir-6513 (structured_RNA)
RNA: GGGAGUAUCGAAAGGCGGUCAGAAUGCGGGUGUACGAAGUUUCAGCAUGUCUCAGGUCCCCAGCUGAGUCAAGCUGAAGCUUCGUGCAC
B12: hsa-mir-7702 (structured_RNA)
RNA: GGGAUCGGUUAGAACAGUAUCGAUUCCGGGUGUACGAAGUUUCAGCCUGAGGACAUGCAGUUUCAGGCUGAAGCUUCGUGCAC
B13: hsa-mir-3167 (structured_RNA)
RNA: GGGAAAACGCCACAGGCAACGUGUAUAGGGUGUACGAAGUUUCAGCUUCUUUUUUCUGAAAUUCUUCAGGAAGGAGCUGAAGCUUCGUGCAC

The other results are listed elsewhere or left out.

One experiment concerns the target T1, LIN28A. As to the kind of experiment: FOREST: bead pull-down of RNA structure library v1, barcode microarray; U1A/LIN28A: 20 mM HEPES pH 7.5, 80 mM KCl, 20 mM NaCl, 10% glycerol, 2 mM DTT, 0.1 ug/uL BSA, 4 C; BG4/CIRBP/DHX36: 10 mM Tris-HCl pH 7.5, 100 mM KCl (or LiCl),; high values mean tight binding.
Regarding B1, the binding signal was -0.408 z-score.
With B2, the binding signal is -0.424 z-score.
B3 yielded a binding signal of -0.431 z-score.
In the case of B4, the binding signal was -0.432 z-score.
For B5, the binding signal is -0.424 z-score.
The same measure, in the same setting: in the case of B6 it was -0.417 z-score; in that of B7, -0.41 z-score.
The same measure, in the same setting: in the case of B8 it was -0.433 z-score.
The molecule B9 had a binding signal of -0.409 z-score.
Still for that read-out and setting: to B10 belongs -0.41 z-score; to B11, -0.415 z-score; to B12, -0.416 z-score.
B13 came in with a binding signal of -0.428 z-score.

In a further experiment the target is T2, CIRBP. The description is as above.
On to B1, for which the binding signal is -0.0264 z-score.
In the case of B2, the binding signal is -0.207 z-score.
B3: the binding signal is -1.26 z-score.
For the molecule B4, the binding signal was -0.429 z-score.
B5 registered a binding signal of -0.218 z-score.
In the case of B6, the binding signal is -0.103 z-score.
The same measure, in the same setting: in the case of B7 it was 0.833 z-score; in that of B8, -1.71 z-score.
On to B9, for which the binding signal is -0.438 z-score.
For B10, the binding signal is -0.294 z-score.
Still for that read-out and setting: to B11 belongs -0.891 z-score; to B12, -0.864 z-score; to B13, 0.588 z-score.

The target of the next experiment is T3, DHX36. Described as above.
In turn, B1 showed a binding signal of 0.696 z-score.
In turn, B2 showed a binding signal of 0.366 z-score.
Take B3: the binding signal stood at 0.107 z-score.
As to B4, the binding signal is -0.914 z-score.
B5 displayed a binding signal of -0.713 z-score.
The same measure, in the same setting: to B6 belongs -1.25 z-score.
For the molecule B7, the binding signal is -0.284 z-score.
Molecule B8 displayed a binding signal of -0.556 z-score.
In turn, B9 yielded a binding signal of -0.409 z-score.
For the molecule B10, the binding signal was 0.219 z-score.
In the case of B11, the binding signal amounted to 0.927 z-score.
In turn, B12 had a binding signal of -0.583 z-score.
Molecule B13 returned a binding signal of -0.106 z-score.

The values above are taken from article PMC7723054.
